From PubChem BioAssay AID588814 (The Scripps Research Institute Molecular Screening Center, 2011) come the findings set out here.

Sequences of proteins named here, by UniProt entry; tags and fusion partners are left off.
UniProt P11229, whole entry: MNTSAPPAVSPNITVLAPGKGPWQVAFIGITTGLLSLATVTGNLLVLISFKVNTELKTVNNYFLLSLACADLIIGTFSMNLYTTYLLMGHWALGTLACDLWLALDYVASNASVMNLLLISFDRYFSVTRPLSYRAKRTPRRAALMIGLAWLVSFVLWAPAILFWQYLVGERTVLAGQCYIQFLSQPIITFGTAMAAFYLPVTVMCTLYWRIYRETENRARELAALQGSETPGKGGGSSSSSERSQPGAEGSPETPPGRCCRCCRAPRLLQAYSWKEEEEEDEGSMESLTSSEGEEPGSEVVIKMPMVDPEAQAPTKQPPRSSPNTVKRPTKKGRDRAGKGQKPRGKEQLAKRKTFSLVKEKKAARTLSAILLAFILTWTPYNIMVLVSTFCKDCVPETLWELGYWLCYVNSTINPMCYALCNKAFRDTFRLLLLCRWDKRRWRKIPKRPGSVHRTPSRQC

This is a selection; strong and weak results do not stand in their true shares. Some of these compounds have results that are not shown, active ones among them. The source made the active and inactive calls.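 How the source made its calls: active means activation above the run's mean compound activation plus 3 SD (cut at about 16% in these data); inactive means the rest.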

In this experiment the target is Muscarinic acetylcholine receptor M1 (Homo sapiens) (UniProt P11229). Put plainly: CHRM1 activation via calcium signal – Fluo-8 calcium fluorescence, CHO-K1 cells, HTS, primary screen (AID 588814).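 Further: peak over basal fluorescence ratio within a 140 s kinetic read after compound addition.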 The note with it: CHO-K1 hM1, Fluo-8 calcium fluorescence, agonist mode; at 3 µM; stronger effect = higher value; 0% DMSO, 100% acetylcholine EC100.
With `O=C(OC1CN2CCC1CC2)C(CO)(c1ccccc1)c1ccccc1` (stereo not drawn), the activation is inactive: -5.33%. Turning to `CN(C)c1cccc(C(=O)NCC2(N(C)C)CCCCC2)c1`, the activation was inactive: -5.39%. The figure for `O=C(OCCN1CCCC1)C(O)(c1ccccc1)c1ccccc1` is inactive: -7.97%; for `CC(C)Oc1ccc(C(=O)NCC2(N(C)C)CCCCC2)cc1` it is inactive: -6.25%; for `COc1ccc(Br)c(C(=O)NCC2(N3CCCCC3)CCCCC2)c1` it is inactive: -4.83%.

Turning to `C=C(C)C#CC(O)(C(=O)OC1CCN(C)CC1)c1ccccc1` (stereo not drawn), the activation was inactive: -8.25%.

As for `COc1cc(C(=O)NCC2(N(C)C)CCCCC2)c([N+](=O)[O-])cc1OC`, the activation was inactive: -7.58%. Turning to `CN(C)C1(CNC(=O)c2ccc(Br)cc2)CCCCC1`, the activation was inactive: -5.61%.

For `O=C(NCC1(N2CCCCC2)CCCCC1)c1cccc(Cl)c1`, the activation is inactive: -5.09%. The figure for `COc1ccc(Cl)cc1C(=O)NCC1(N(C)C)CCCCC1` is inactive: -9.33%. Turning to `COc1cccc(C(=O)NCC2(N3CCCCC3)CCCCC2)c1`, the activation is inactive: -4.88%.

For `CN(C)c1ccc(C(=O)NCC2(N(C)C)CCCCC2)cc1`, the activation was inactive: -6.05%.

On to `Cc1ccccc1C(=O)NCC1(N2CCCCC2)CCCCC1`, for which the activation is inactive: -5.22%. In the case of `O=C(NCC1(N2CCCCC2)CCCCC1)c1cccc(Br)c1`, the activation was inactive: -2.48%.

As for `Cc1cc(C(=O)NCC2(N3CCCCC3)CCCCC2)ccc1[N+](=O)[O-]`, the activation is inactive: -5.7%. With `COc1ccc(C(=O)NCC2(N(C)C)CCCCC2)cc1` the figure was inactive: -3.08%; with `O=C(NCC1(N2CCCCC2)CCCCC1)c1cc(F)c(F)cc1Cl`, inactive: -6.54%; with `C=CCN1CCN(CCOC(=O)C(O)(c2ccccc2)c2ccccc2)CC1`, inactive: -15.3%. The figure for `O=C(NCC1(N2CCCCC2)CCCCC1)c1cc([N+](=O)[O-])ccc1Cl` is inactive: -7.67%; for `Cc1ccc(C(=O)NCC2(N3CCCCC3)CCCCC2)cc1` it is inactive: -8.68%. The figure for `CC(C)N1C(=O)CC2(CCN(CCOC(=O)C(O)(c3ccccc3)c3ccccc3)CC2)C1=O` is inactive: -3.63%; for `COc1cc(SC)ccc1C(=O)NCC1(N(C)C)CCCCC1` it is inactive: -9.94%; for `CCN(CC)CC(C)C(C)OC(=O)C(O)(c1ccccc1)c1ccccc1` (stereo not drawn) it is inactive: -4.84%.
